Measurements published in patent US8445281B2, “In vitro exposure of immature oocytes to BDNF enhances generation of embryonic stem cells” (The Board of Trustees of the Leland Stanford Junior …, priority 2006, dated 2013).

Tests used:
[1] = test system: oocytes of preovulatory follicles; experiment: Preovulatory follicle culture, GVBD of oocytes; format: cell-based, mouse; details: cultured preovulatory follicles, 6 h, 5 μg/ml LH or BDNF
Description: Follicle Cultures. Preovulatory follicles were excised from mouse ovaries 48 h after PMSG treatment and cultured to examine nuclear maturation of oocytes (Kawamura et al. (2004) Proc. Natl. Acad. Sci. USA 101, 7323-7328). Follicles (20-30 per vial) were cultured with or without recombinant human BDNF (Pepro-Tech, Rocky Hill, N.J.) or 5 μg/ml LH (Organon) in Leibovitz's L-15 medium (Invitrogen). The vials were flushed at the start of the culture with O2/N2 (at a 1:1 ratio), sealed, and cultured at 37° C. with gentle shaking for 6 h. After culture, cumulus oocyte complexes (COCs) were isolated, and, after cumulus cells were removed, oocytes were examined for the occurrence of GVBD.

ovarian BDNF = experiment: Gonadotropin regulation of ovarian BDNF expression (DNA microarray, ELISA); format: in vivo, mouse; details: PMSG-primed mice
Description: Animals. Immature female B6D2F1 mice were obtained from Charles River Laboratories. Animal care was consistent with institutional and National Institute of Health guidelines. Mice at 22 days of age were treated with 7.5 units of pregnant mare serum gonadotropin (PMSG; Calbiochem), followed by treatment with 10 units of hCG (Sigma) 48 h later so as to simulate follicle maturation and ovulation.
DNA Microarray Analyses. Mice (n=108) were injected at 21 days of age with Humegon (7.5 units per animal, Organon) containing follicle-stimulating hormone and LH in order to stimulate follicular growth. Forty-eight hours later, some animals were treated i.p. with Pregnyl (5 units per animal) containing LH activity to induce ovulation. Ovaries were dissected from animals killed bi-hourly after Humegon treatment (three mice per group) and hourly after Pregnyl treatment (one mouse per group) for RNA extraction (TRIzol, Invitrogen). Aliquots of 6 μg of total RNA at 1 μg/μl for one-chipset hybridization were stored at −80° C. Samples were hybridized to the Affymetrix mouse MGU74v2 arrays A, B, and C according to standard Affymetrix protocols. The pooled follicular phase samples were hybridized in duplicate, and the postPregnyl samples were single determinations. […]

| Substance | induction of GVBD in oocytes [1] | time of peak of ovarian BDNF antigen levels (ovarian BDNF) [h] | time to increase of ovarian BDNF antigen levels (ovarian BDNF) [h] |
| --- | --- | --- | --- |
| LH: luteinizing hormone (Organon), 5 μg/ml in follicle culture | induced |  |  |
| hCG: human chorionic gonadotropin (Sigma), 10 units to induce ovulation |  | 7 | ≤ 3 |
